Compound activity as filed in PubChem BioAssay.
HCMV NEC inh: inhibitors of HCMV UL50-UL53 interaction, biochemical, HTRF. normalized percent inhibition. 0.15% of 190,000 active. AID 1918969, 2023. inhibition, % (concentration not given with the values); in the data active = inhibition above about 27%, passing the limit was not always enough
GIV Gai3 FP: GIV-Galpha-i interaction inhibition; P08753; Galpha-i3/FITC-GIV peptide fluorescence polarization, 90 min; active compounds read low; scaled: aluminum fluoride 0%, vehicle 100%; percent of control (FP), % (no concentration beside the values); 210,000 compounds, 0.42% hits; AID 1224905;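 active means replicate mean at 85% of control or lower, very high polarization wells dropped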;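 further: wells of about 15 µL received 100 nL stock; the first replicate is given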
GIV-Gai FP conf: inhibitors of GIV peptide binding to Galpha-i3, confirmation, biochemical, fluorescence polarization, FITC-GIV peptide, rat Galphai3. AID 1259350, 2017. fluorescence polarization, mP at 100 µM. 38% of 580 active. hits give low values. shares compounds with GIV Gai3 FP;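 active = inhibition score of 15 or more, meaning 100 minus mean polarization as percent of control over three replicates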;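 note: lower mP means peptide displaced from Galphai3 so more inhibition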
GIV-Gai AS conf: inhibitors of GIV binding to Galpha-i3, confirmation, orthogonal assay for GIV-Galpha-i inhibitor project, biochemical, AlphaScreen, His-GIV, GST-Galphai3 | shares compounds with GIV Gai3 FP | purified proteins, 90 min; hits give low values | AlphaScreen counts at 100 µM | 39% of 580 active;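 active = inhibition score at or above a set limit, where the score is 100 minus the three-replicate mean percent of control signal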
* = called active by the depositor. In the library only some 0.43% were active in any assay of this set; here they are far more common.

Results for COc1cc(C2CC(=O)Nc3c2ccc2ccccc32)c(OC)cc1Br (configuration not stated) ?
GIV Gai3 FP: 105

Results for Cc1ccc(NC(=O)N2CCN(c3cc(=O)n4nc(-c5ccccc5C)sc4n3)CC2)c(Cl)c1 ?
HCMV NEC inh: 5; GIV Gai3 FP: 92; GIV-Gai FP conf: 81; GIV-Gai AS conf: 28227

Results for Cc1ccccc1-c1nn2c(=O)cc(N3CCN(C(=O)Nc4cccc(Cl)c4C)CC3)nc2s1 ?
HCMV NEC inh: 28; GIV Gai3 FP: 100

Results for CCOC(=O)C1=C(c2ccccc2)NC(SCC(=O)Nc2ccccc2)=C(C#N)C1c1ccco1 (configuration not stated) ?
GIV Gai3 FP: 101

What do the screens show for `CN1C(=O)c2ccccc2N(C)C1c1ccc(F)cc1` (configuration not stated)?
HCMV NEC inh: 0; GIV Gai3 FP: 101

Results for CN1c2ccccc2N(C)C1c1ccc(O)cc1 ?
HCMV NEC inh: 68*; GIV Gai3 FP: 16*; GIV-Gai FP conf: 31*; GIV-Gai AS conf: 16384*

What do the screens show for `O=C(Cn1c(=O)oc2ccccc21)Nc1nc2c(s1)CCCC2`?
HCMV NEC inh: -9; GIV Gai3 FP: 104

What do the screens show for `COc1ccc(NC(=O)CSc2nnc3c4sc(N5CCCC5)nc4ncn23)cc1`?
GIV Gai3 FP: 109

Results for O=C(CSc1nnc2c3sc(N4CCCC4)nc3ncn12)Nc1ccccc1 ?
GIV Gai3 FP: 81*; GIV-Gai FP conf: 81; GIV-Gai AS conf: 31906

How did CC(=O)N1CCCSc2ccc(S(=O)(=O)N3CCN(C)CC3)cc21 do in these assays?
HCMV NEC inh: -18; GIV Gai3 FP: 100

Results for Cc1cc(C)c2c(c1)CC(C)(C)c1nc3cc(C)c(C)cc3nc1-2 ?
GIV Gai3 FP: 104

How did CC(C)N1CC2=C(OC(N)=C(C#N)C2c2ccccc2F)/C(=C/c2ccccc2F)C1 (configuration not stated) do in these assays?
GIV Gai3 FP: 124

What do the screens show for `COc1cc(NC(=O)c2sc3nc4n(c(=O)c3c2C)CCCCC4)cc(OC)c1OC`?
HCMV NEC inh: -8; GIV Gai3 FP: 104

What do the screens show for `COc1ccc(NC(=O)c2sc3nc4n(c(=O)c3c2C)CCC4)cc1Cl`?
HCMV NEC inh: 3; GIV Gai3 FP: 83*; GIV-Gai FP conf: 80; GIV-Gai AS conf: 33472

How did CCn1c(=O)c(C(=O)Nc2nccc(C)n2)c(O)c2ccccc21 do in these assays?
HCMV NEC inh: -3; GIV Gai3 FP: 107

Results for O=C(CN1CCC(c2nc3ccccc3o2)CC1)Nc1cc(F)ccc1F ?
HCMV NEC inh: 12

What do the screens show for `CCN1CCN(c2ccc(N=Cc3cc(I)ccc3O)cc2)CC1`?
HCMV NEC inh: -29; GIV Gai3 FP: 28*; GIV-Gai FP conf: 81; GIV-Gai AS conf: 28751

What do the screens show for `Oc1ccc(C=Nc2ccc(N3CCOCC3)cc2)cc1O`?
HCMV NEC inh: -29

Results for CSc1nc2ccc(NC(=O)c3cccc(F)c3)cc2s1 ?
HCMV NEC inh: -15; GIV Gai3 FP: 100

How did CC(C)Cn1nc(C(N)=O)c2ccccc2c1=O do in these assays?
HCMV NEC inh: -12

How did CC1=CC(=C2C(=O)c3ccccc3C2=O)C=C(C)N1C(C)C do in these assays?
HCMV NEC inh: -113; GIV Gai3 FP: 73*; GIV-Gai FP conf: 71; GIV-Gai AS conf: 40071

How did CC1=CC(=C2C(=O)c3ccccc3C2=O)C=C(C)N1CCO do in these assays?
HCMV NEC inh: -52; GIV Gai3 FP: 91

How did COc1ccc2c(CC(=O)O)coc2c1 do in these assays?
HCMV NEC inh: -13; GIV Gai3 FP: 90; GIV-Gai FP conf: 68; GIV-Gai AS conf: 38743

Results for COc1ccc2c(CC(=O)Nc3ccccc3)coc2c1 ?
HCMV NEC inh: -31

How did CC1(C)OC2OC(CO)C(O)C(O)C2O1 (configuration not stated) do in these assays?
HCMV NEC inh: -50; GIV Gai3 FP: 99

Results for C=CCN(CC=C)Cc1ccc(C(=O)OC)o1 ?
HCMV NEC inh: 5; GIV Gai3 FP: 80*; GIV-Gai FP conf: 75; GIV-Gai AS conf: 54407

Results for COC(=O)c1ccc(CC#N)o1 ?
HCMV NEC inh: -9; GIV Gai3 FP: 98

Results for CCCN1CCN(C(=O)Cn2nc(N3CCN(c4ccccc4)CC3)ccc2=O)CC1 ?
HCMV NEC inh: -45; GIV Gai3 FP: 108

Results for Cc1cc(C)cc(N2C(=O)N(Cc3cc(=O)n4ccccc4n3)c3ccccc3S2(=O)=O)c1 ?
GIV Gai3 FP: 107

What do the screens show for `O=C1N(Cc2cc(=O)n3ccccc3n2)c2ccccc2S(=O)(=O)N1c1ccc(Cl)cc1`?
GIV Gai3 FP: 85*; GIV-Gai FP conf: 51*; GIV-Gai AS conf: 35949

What do the screens show for `COc1ccc(-c2noc(CCCC(=O)Nc3nccs3)n2)cc1`?
HCMV NEC inh: -18; GIV Gai3 FP: 91; GIV-Gai FP conf: 65; GIV-Gai AS conf: 44685

Results for CNC(=O)CCCc1nc(-c2ccc(OC)cc2)no1 ?
HCMV NEC inh: -6; GIV Gai3 FP: 101

Results for C=CCSc1nc2sc3c(c2c(=O)n1Cc1ccccc1)CC(C)(C)OC3 ?
HCMV NEC inh: -22; GIV Gai3 FP: 104

Results for Cc1ccc(C)n1-c1nnc(N2CCCC(C(=O)O)C2)s1 (configuration not stated) ?
GIV Gai3 FP: 87; GIV-Gai FP conf: 59; GIV-Gai AS conf: 7556*

Results for Cc1cccc(NC(=O)C2CCCN(c3nnc(-n4c(C)ccc4C)s3)C2)c1C (configuration not stated) ?
HCMV NEC inh: -10; GIV Gai3 FP: 103

How did COc1ccc(NC(=O)CCc2c(C)nn3cnnc3c2C)cc1OC do in these assays?
HCMV NEC inh: -8; GIV Gai3 FP: 97

Arranged by molar mass (ascending): some entries from above.
How did CC1(C)OC2OC(CO)C(O)C(O)C2O1 (configuration not stated) do in these assays?
HCMV NEC inh: -50; GIV Gai3 FP: 99

Results for C=CCN(CC=C)Cc1ccc(C(=O)OC)o1 ?
HCMV NEC inh: 5; GIV Gai3 FP: 80*; GIV-Gai FP conf: 75; GIV-Gai AS conf: 54407

What do the screens show for `COc1ccc(-c2noc(CCCC(=O)Nc3nccs3)n2)cc1`?
HCMV NEC inh: -18; GIV Gai3 FP: 91; GIV-Gai FP conf: 65; GIV-Gai AS conf: 44685

How did COc1ccc(NC(=O)CCc2c(C)nn3cnnc3c2C)cc1OC do in these assays?
HCMV NEC inh: -8; GIV Gai3 FP: 97

What do the screens show for `O=C1N(Cc2cc(=O)n3ccccc3n2)c2ccccc2S(=O)(=O)N1c1ccc(Cl)cc1`?
GIV Gai3 FP: 85*; GIV-Gai FP conf: 51*; GIV-Gai AS conf: 35949

(cont.)
Results for CC1(C)CCC2=C(O1)c1ccccc1C(=O)C2=O ?
HCMV NEC inh: 110; GIV Gai3 FP: 54*; GIV-Gai FP conf: 54*; GIV-Gai AS conf: 33926

Results for CC1=C(C)C(=O)c2ccccc2C1=O ?
HCMV NEC inh: -172; GIV Gai3 FP: 109

How did Cc1cccc(-c2nc3ccc(C(=O)NCCN4CCOCC4)cc3nc2-c2cccc(C)c2)c1 do in these assays?
GIV Gai3 FP: 108

How did Cc1ccc(S(=O)(=O)c2cnc(N3CCN(Cc4ccc5c(c4)OCO5)CC3)nc2N)cc1 do in these assays?
GIV Gai3 FP: 108

How did O=C(CCc1nc2ccccc2c(=O)[nH]1)Nc1nccs1 do in these assays?
HCMV NEC inh: -27

Results for CCN(CC)c1ccc(/C=c2\sc3ncnn3c2=O)cc1 ?
GIV Gai3 FP: 57*; GIV-Gai FP conf: 35*; GIV-Gai AS conf: 49389

Results for COc1ccc(/C=c2\sc3ncnn3c2=O)cc1 ?
HCMV NEC inh: -36

How did Cc1cccc(CC(=O)Nc2c(C(N)=O)oc3ccccc23)c1 do in these assays?
HCMV NEC inh: -37; GIV Gai3 FP: 99
